Values quoted from earlier work in article PMC4297247 (Molecular cancer therapeutics, 2014).

Test system: TNBC
Settings: anti-EGFR antibody treatment in TNBC; cited from earlier work

cetuximab
patient response rate: low patient response rate
